# Ab-14 heavy chain CDR variants: yeast mating affinities

All variants were tested on one target, the spike HR2 peptide PDVDLGDISGINAS (SARS-CoV-2).

Ab-14 is the parent antibody, in scFv form: VH, then the linker GGGGSGGGGSGGGGS, then VL. The light chain is unchanged in all variants.
VH: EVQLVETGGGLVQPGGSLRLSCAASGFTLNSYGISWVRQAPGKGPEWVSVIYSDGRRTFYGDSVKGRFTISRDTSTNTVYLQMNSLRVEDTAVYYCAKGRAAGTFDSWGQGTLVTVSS
VL: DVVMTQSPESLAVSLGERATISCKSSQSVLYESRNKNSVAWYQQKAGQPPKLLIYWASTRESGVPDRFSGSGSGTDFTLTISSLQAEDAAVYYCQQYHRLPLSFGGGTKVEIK

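Library AAYL49 holds single substitutions and randomly drawn double and triple substitutions in the CDRs. AlphaSeq pools MATa yeast showing the antibodies with MATalpha yeast showing the peptide. Pairs that bind mate more often; barcode pairs of the diploids are counted by sequencing. The ratio of observed to expected reads was calibrated, replicate by replicate, on BCL2-family standards whose Kd was known from biolayer interferometry. Mating was done three times.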

Each variant is given by its three heavy chain CDRs, as the data file delimits them; those of the parent are GFTLNSYGIS, VIYSDGRRTFYGDSVK, GRAAGTFDS.
Values are log10 of the apparent Kd in nM; lower means stronger binding.
Where no diploid with the target was found in that replicate, the entry reads "nd": below detection, most likely a poor binder, though not proof of it.
Parent in this assay: reference entry 0.65, copy in this library 4.11 (one replicate of three).

Variant GNTLNSYGIS / VIYSDGFRTFYGDSVK / GRAACTFDS gave nd, nd, nd (controls 0 of 9).
Variant GFTLNDYGIS / VIYSDGRRTMYGPSVK / GRAAGTFDS gave 0.36, 0.65, 0.52 (controls 2 of 9).
Variant GFTLNSYGIS / VIYSDGRRSFYGDSVK / GRSAGTFDS gave 1.76, 1.63, 2.01 (controls 2 of 9).
Variant GFTLGSYGIS / VIYSDGRRTFYGDSVK / GRALGMFDS gave nd, nd, nd (controls 1 of 9).
Variant GFTLNSYGIS / VIYSDGNRTFYGDSNK / GRAAGTLDS gave nd, nd, nd (controls 1 of 9).
Variant GFTLNYYGVS / VIYSDGRRTFYGDSVK / GRAAGTFDS gave 2.30, 2.17, 2.41 (controls 5 of 9).
Variant GFTLNSYGIS / VDYSDGRRTFYGDSVK / GVAFGTFDS gave 4.07, 3.55, nd (controls 3 of 9).
Variant GVTLNSYGIS / QIYSDGGRTFYGDSVK / GRAAGTFDS gave nd, nd, nd (controls 0 of 9).
Variant GFTLNSYGIS / VIYSDGRRNFYGDSVK / GEAEGTFDS gave nd, 4.50, nd (controls 2 of 9).
Variant GFTLNSYKIA / VIYSDGRRTFYGDRVK / GRAAGTFDS gave nd, nd, nd (controls 0 of 9).
Variant GFTLCSYGIS / VILSDGRRTFYGDSCK / GRAAGTFDS gave 4.16, 5.31, nd (controls 3 of 9).
Variant GFYLNSYGID / VILSDGRRTFYGDSVK / GRAAGTFDS gave 3.56, nd, 4.19 (controls 2 of 9).
Variant GFTLNSYGIS / VIYVDGRRTFDGDSVK / GRAAFTFDS gave 6.00, 5.21, nd (controls 3 of 9).
Variant GFTLNSYGII / VIYSDGHRTFYGDSVK / WRAAGTFDS gave 4.69, 3.72, nd (controls 5 of 9).
Variant GFTLWSYMIS / VIYSDGRRTFYGDSVK / NRAAGTFDS gave 4.37, nd, 4.60 (controls 1 of 9).
Variant GFTLGSYGIS / VIYSDGRYTFYGDSVK / GRTAGTFDS gave 2.97, nd, nd (controls 2 of 9).
Variant GVTLNSYGIS / VIYSDGRRTAYKDSVK / GRAAGTFDS gave 1.02, 1.14, 1.10 (controls 5 of 9).
Variant GFTLNSLGIS / VIYSDGRCTFYGDSVK / GRADGTFDS gave nd, nd, nd (controls 4 of 9).
Variant GFTLHSQGIS / VIYSDGRRTFYGMSVK / GRAAGTFDS gave 6.05, 3.43, 2.80 (controls 3 of 9).
Variant GFTLNSYGIS / YIYSDGRRTFYGDSVP / GRAAGTFDS gave nd, 4.25, nd (controls 0 of 9).
Variant GFTLNSYGIS / NWYRDGRRTFYGDSVK / GRAAGTFDS gave nd, nd, nd (controls 0 of 9).
Variant GFCLNSYGIS / RIYIDGRRTFYGDSVK / GRAAGTFDS gave nd, nd, 5.31 (controls 2 of 9).
Variant GFINNSYGIS / VIYSDGRRTFYGMSVK / GRAAGTFDS gave 4.41, 3.88, nd (controls 1 of 9).
Variant GFTLNSYGIS / VRYSDGRRTFYGDSVK / GRCAGTFFS gave nd, nd, nd (controls 0 of 9).
Variant GWTLNSYGIS / WIYSDGRRTFYGDSVK / GRAAGTFPS gave 6.56, 3.85, 5.27 (controls 8 of 9).
Variant GFTLNSYGNS / VIMSDGRRTFYGDSVK / GRAAGTFGS gave nd, nd, nd (controls 1 of 9).
Variant GFTLNSYGIS / VIYSDGRTTFYGDSVK / CRNAGTFDS gave nd, nd, nd (controls 0 of 9).
Variant GFTLNSNGIS / VIYSDGRRTFYGDSVK / GRAAGTSDS gave 2.63, 3.11, nd (controls 4 of 9).
Variant GFTLNSYGIS / VIHSDGRRTFYGDSVK / GRAAFTFDS gave nd, nd, nd (controls 2 of 9).
Variant GFTLNSYGIS / VIAMDGRRTFYGDSVK / GRSAGTFDS gave nd, 5.53, nd (controls 2 of 9).
Variant KFTLNSDGIS / VIYSDGRRTFYGDSVK / GQAAGTFDS gave nd, nd, nd (controls 2 of 9).
Variant GFTLNSYGIS / VIYSDGRRTVYGDSVY / GRAAGFFDS gave 2.29, 2.48, 3.54 (controls 1 of 9).
Variant GFCLNSYGIS / VIYSDGRRTFYGDSVI / GRAAGTSDS gave nd, nd, 3.98 (controls 1 of 9).
Variant GFTLNSYGIS / VINSFGRRTFYGDSVK / FRAAGTFDS gave nd, nd, nd (controls 1 of 9).
Variant GFTLNSYGII / VIYSDGRRTFYGDSVK / GRAAGGRDS gave nd, nd, nd (controls 4 of 9).
Variant GFTLNSYGRS / VIYSDGMRTFYGDSVK / GRAAGEFDS gave nd, nd, nd (controls 1 of 9).
Variant GFTLNSYGIS / VIYSDGRRTFYGDSVR / GNRAGTFDS gave 0.24, 0.56, 0.36 (controls 0 of 9).
Variant GFTMNSYGIS / IIYSDGRRTFYGQSVK / GRAAGTFDS gave nd, nd, nd (controls 0 of 9).
Variant GFTLPSYGIS / VIYSDGRVTFYGKSVK / GRAAGTFDS gave nd, nd, nd (controls 0 of 9).

The first 3 entries again:

For GNTLNSYGIS / VIYSDGFRTFYGDSVK / GRAACTFDS, the assay gave nd, nd, nd (controls 0 of 9).
For GFTLNDYGIS / VIYSDGRRTMYGPSVK / GRAAGTFDS, the assay gave 0.36, 0.65, 0.52 (controls 2 of 9).
For GFTLNSYGIS / VIYSDGRRSFYGDSVK / GRSAGTFDS, the assay gave 1.76, 1.63, 2.01 (controls 2 of 9).

Nonspecific signal, from three strains lacking the peptide, appeared in 15% of pairings of library AAYL49, centred on 4.06 (5% of these signals below 2.83); values are not corrected for it. The control count says in how many pairings with the empty strains this scFv gave a signal.

Data: MIT Lincoln Laboratory AlphaSeq set, Engelhart et al. 2022, doi:10.1038/s41597-022-01779-4, as distributed in FLAb.